Binding of CDR-mutated scFvs to a peptide of the spike HR2 region

All variants were tested on one target, the spike HR2 peptide PDVDLGDISGINAS (SARS-CoV-2).

Parent: Ab-14, a human scFv built as VH, three GGGGS repeats, VL. Only the CDRs of the light chain vary.
VH: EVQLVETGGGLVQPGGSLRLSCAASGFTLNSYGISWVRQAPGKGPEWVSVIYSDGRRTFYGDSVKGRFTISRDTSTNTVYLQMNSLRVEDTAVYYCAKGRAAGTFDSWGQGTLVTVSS
VL: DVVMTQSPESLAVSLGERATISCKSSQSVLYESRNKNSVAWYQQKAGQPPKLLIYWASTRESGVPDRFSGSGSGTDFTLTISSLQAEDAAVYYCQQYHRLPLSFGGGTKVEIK

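Phage display of a naive human antibody library on the peptide gave the parent. The variants were designed computationally from a first round of random CDR variants and then made and measured. Group labels follow the data file (Ctrl: baseline library sampled from a position-specific scoring matrix, with some repeated check sequences; En: ensemble of fine-tuned language models; GP: Gaussian process model; HC: hill climbing; Gen: genetic algorithm; Gibbs: Gibbs sampling; a sequence that several methods proposed may carry one label only). The assay is AlphaSeq: two haploid yeast populations carry antibody and antigen on their surface. The frequency of each diploid, read from paired DNA barcodes, reflects how well the two displayed proteins bind. The ratio of observed to expected reads was calibrated, replicate by replicate, on BCL2-family standards whose Kd was known from biolayer interferometry. There are six technical replicates.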

Variants are written as CDR1, CDR2 and CDR3 of the light chain (limits as in the source). Parent: KSSQSVLYESRNKNSVA, WASTRES, QQYHRLPLS. Affinities are written as log10 Kd with Kd in nM; a lower number is a better binder. "nd" means that the variant was in the library but no mating with the target was seen in that replicate; the authors take this as a sign of poor binding, and no number exists. The authors averaged sequences with at least three values out of six and counted those with two or fewer as poor binders. A sequence measured in both rounds can read differently, since the two assays cover different ranges. Background: pairings of all light chain designs with three empty control strains gave a value in 4% of cases (median 2.64, 5th percentile 1.59). Values in that range, when seen in few replicates, are hard to tell from nonspecific mating.

log10 Kd, replicates | CDR-L1 | CDR-L2 | CDR-L3 | group
0.88 0.79 0.86 0.65 0.99 0.89 | KISMLQRFQNNAKNNIA | EMSRREE | QQYHRLPLS | En_HC
-0.13 -0.13 -0.01 -0.28 -0.28 0.04 | KLPQSMLYESRNWNSVA | QASTRES | QQYHRLPLT | GP_Gibbs
-0.12 -0.19 -0.06 -0.29 1.05 0.16 | KSSQSVLYESGNKNSVA | HASTRES | QQYHRLPLS | GP_HC
nd nd nd nd 1.65 nd | MMLSGSVEVQNIQNAVA | EASMVYD | QQYVSLPLS | En_Gibbs
0.89 0.71 1.66 0.66 0.78 1.13 | KISGYLHKESKNKNSVA | EMVNRES | QQYDRLPLS | En_HC
0.71 1.05 0.73 1.10 1.25 0.95 | KVSDSAGFLSRNRNSVA | DNSTRGS | QQYHRLPLS | En_HC
1.12 1.28 0.81 0.95 1.29 1.32 | HMSALTLQGMRMRNSVA | QMTTREN | QQYDHLPLS | En_Gen
nd nd 2.22 nd nd 2.34 | MVSQLMLWGLHAKNSIA | EAQMRLN | QQYDRLPLI | En_Gen
0.34 0.63 0.57 0.81 0.50 0.97 | MMSQVTGLGQRHRNNVA | QTSTRED | QQYDRLPLV | En_Gen
1.99 1.51 1.02 0.85 2.27 1.99 | HMSMITLQGMRHRNSVA | QMTTRVN | QQYDRLPLS | En_Gen
2.77 nd nd nd 3.34 nd | KLSQSVLYESRNKNSVA | HASTRES | QQIDRLPNS | Ctrl
2.10 1.58 0.68 0.93 0.98 1.82 | MFSQLMGYGSRYKNSVA | QASTRED | QQYHWLPLS | En_HC
0.37 0.17 0.25 0.03 0.08 0.19 | ALSWSQGGESRNPNSVA | HASTRES | QQYHRLPLS | GP_Gibbs
2.20 2.16 2.23 1.82 2.39 2.46 | QLYESNYELSGKTHSVA | DNSTRGE | QQYFRLPLD | En_Gen
0.54 0.60 0.71 0.71 0.80 0.64 | KLSLSVELESRLKNSVA | HASTREW | QQYHRLPLS | GP_Gibbs
-0.40 -0.39 -0.70 -0.69 -0.76 -0.54 | KVSQSWLKESRNKNSVA | EASTRES | QQYHRLPLS | GP_HC
0.56 1.75 0.79 1.12 1.33 0.37 | TISQMSTLFSQTINNVA | EVSTREQ | QQYDRLPLQ | En_Gen
nd 1.24 1.82 nd 1.16 nd | ILSQSVLMGMHIKNSVA | QATMRFN | QQYHRLPLM | En_HC
0.41 0.37 0.27 0.30 0.24 0.42 | KLSQSHLYESRNKNSVA | EASTRES | QAYHRLPLS | GP_Gen
-0.02 0.13 -0.15 0.02 -0.13 0.25 | IIPQSWLGEWRNKNSVA | NASQRES | QQYHRLPLS | GP_Gibbs
1.02 0.80 1.16 0.98 0.69 1.25 | KISQMSTIEMIMHNSVA | QTSTREN | QQYDRLPLS | En_HC
0.01 -0.12 -0.13 -0.21 -0.24 -0.03 | KLQGSELGESRNKNSVA | HADTRES | QQYHRLPLS | GP_Gibbs
nd 3.85 nd nd nd nd | KFSQSVRYESRNKNSVA | WASTNES | QQYGRLPGS | Ctrl
0.48 0.55 0.71 0.88 0.63 0.98 | TLWDSIQGGDWAKKNVA | DEQVRMV | QQYYRLPLS | En_Gibbs
0.21 0.51 0.31 0.25 0.38 0.50 | KVDQSNLYEQRNKNSVA | SASLRFS | QQYHRLPLS | GP_Gibbs
1.92 1.67 2.25 2.55 2.19 1.35 | KSSQSKDYESRNKNSVA | FASIRES | QQYHRLPLS | Ctrl
0.97 0.70 0.62 0.47 0.85 0.85 | HMSAVTLMGSRTRNSVA | QMTTREN | QQYDRLPLA | En_Gen
2.12 1.64 1.20 1.64 1.93 2.04 | HLGLVTMLEEAVRNNVA | NNSTREV | QQYDRLPLS | En_Gen
0.45 0.08 0.12 0.04 0.13 0.23 | KLMQSVLYESRNKNSVA | HASLRED | QQYHRLPLS | GP_HC
-0.12 -0.07 -0.33 -0.23 -0.19 -0.07 | KMSQSQLYESRNKNSVA | NASQRES | QQYHRLPLS | GP_Gen
1.45 1.31 0.74 1.02 0.78 1.12 | KSSQSVLYESRNKNSVA | EASTRES | QQYDRLPLS | Ctrl
nd 2.32 nd nd nd 2.96 | KLTAAQNDYGQNYSNIA | EEVNSLQ | QQYHHLPLS | En_Gibbs
0.91 1.23 1.10 0.19 1.18 1.66 | SIRQVGCDNQRNHSNIA | DATQIEP | QQYSMLPLS | En_Gibbs
0.68 0.69 0.16 -0.02 0.29 0.48 | KMLQNVMTEGRNRNNVA | HMDMRED | QQYWRLPLS | En_HC
0.90 0.75 1.08 0.99 0.88 1.08 | SIGGHMKSLSAHMNSVA | DMTNRED | QQYDRLPLS | En_Gen
0.04 0.12 -0.39 0.06 0.11 -0.06 | KWSQSVMGESVNKNSVA | NASTRES | QQYHRLPLS | GP_Gibbs
nd nd nd nd nd nd | KSSQSVLYESKVKNSVA | WASTRES | QQYHRLSLS | Ctrl
nd nd nd nd nd 1.37 | KSSQSVLYESRNKWSVA | WASTRES | QQYSRLPLS | Ctrl
0.54 0.25 0.28 -0.01 0.56 0.71 | KLSIMYQHTSHNKNNIA | ERSTREE | QQYHHLPLS | En_HC
1.27 nd nd nd nd nd | KSPFSVLTESTNKNSVA | EASTRES | QQYHRLPLS | Ctrl
-0.10 -0.25 -0.35 -0.51 -0.46 -0.28 | KLSQSVEYESRDKNSVA | DASTRMS | QQYHRLPLS | GP_Gibbs
1.17 0.56 0.89 0.96 0.79 0.83 | MLSMVTEGMVRKHDAVA | DNSTRED | QQYDRLPLS | En_Gen
0.65 0.49 0.57 0.50 0.66 0.76 | KMQQSNLYESRNCNSVA | NASTRLW | QQYHRLPLS | GP_Gibbs
2.01 1.05 nd nd nd 2.09 | MISQLYNMGTFAINSVA | QASVRNE | QQYDRLPLE | En_Gen
nd nd nd nd 2.97 nd | KSSVSVKYESRNVNSVA | WASTREI | QQYHRLPWS | Ctrl
-0.36 -0.41 -0.50 -0.53 -0.49 -0.18 | KLSQSMLYESRNKNNVA | DASQRES | QQYHRLPLS | GP_Gen
nd nd nd 2.55 nd nd | MFSQLVYTGTRTKNAVA | QASTREN | QQYHRLPLS | En_HC
0.18 0.32 0.02 0.07 0.16 0.28 | KLQMSEEYGSRNKNSVA | SASQRES | QQYHRLPLS | GP_Gibbs
nd nd nd 2.66 nd nd | TISQSANQESHNKNSVA | DLSVRGS | QQYDRLPLS | En_HC
0.22 -0.01 -0.03 -0.03 -0.09 0.05 | KLWQSWLYESRNKNSVA | NASQRES | QQYHRLPLS | GP_Gen
2.10 2.75 nd 2.94 nd 3.46 | KSPASVLYESRNKNSVA | WASARES | QQYHRLPLS | Ctrl
-0.31 -0.72 nd -1.48 0.12 -0.91 | KLSMITGHMSMAKNNVA | EMVTREN | QQYNRLPLS | En_Gen

Picked from the list: the 5 lowest averages where every replicate gave a value.

CDR-L1 | CDR-L2 | CDR-L3 | group | log10 Kd, replicates
KVSQSWLKESRNKNSVA | EASTRES | QQYHRLPLS | GP_HC | -0.40 -0.39 -0.70 -0.69 -0.76 -0.54
KLSQSMLYESRNKNNVA | DASQRES | QQYHRLPLS | GP_Gen | -0.36 -0.41 -0.50 -0.53 -0.49 -0.18
KLSQSVEYESRDKNSVA | DASTRMS | QQYHRLPLS | GP_Gibbs | -0.10 -0.25 -0.35 -0.51 -0.46 -0.28
KMSQSQLYESRNKNSVA | NASQRES | QQYHRLPLS | GP_Gen | -0.12 -0.07 -0.33 -0.23 -0.19 -0.07
KLPQSMLYESRNWNSVA | QASTRES | QQYHRLPLT | GP_Gibbs | -0.13 -0.13 -0.01 -0.28 -0.28 0.04

Data: MIT Lincoln Laboratory AlphaSeq set, Li et al. 2023, doi:10.1038/s41467-023-39022-2, as distributed in FLAb.